# Apparent affinities of Ab-14 variants for a coronavirus HR2 peptide

Values reported by Li et al. 2023, doi:10.1038/s41467-023-39022-2 (FLAb copy).

All variants were tested on one target, the spike HR2 peptide PDVDLGDISGINAS (SARS-CoV-2).

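Phage display of a naive human antibody library on the peptide gave the parent. This is the validation round: designs drawn from the data on random variants, tested in the same kind of assay. Group labels follow the data file (En: ensemble of fine-tuned language models; GP: Gaussian process model; HC: hill climbing; Gen: genetic algorithm; Gibbs: Gibbs sampling; a sequence that several methods proposed may carry one label only). The scFvs were displayed on barcoded MATa yeast, the peptide on MATalpha yeast. After mating in shaken culture at 30 °C for 16 h, diploids were selected and their barcode pairs sequenced. Scores were corrected for input abundance and mapped to Kd with protein pairs of known affinity run in the same pool. The assay was run in six technical replicates.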

Parent scFv Ab-14: VH joined to VL by a 15-residue (Gly4Ser)3 linker. Changes lie in the light chain CDRs alone.
VH: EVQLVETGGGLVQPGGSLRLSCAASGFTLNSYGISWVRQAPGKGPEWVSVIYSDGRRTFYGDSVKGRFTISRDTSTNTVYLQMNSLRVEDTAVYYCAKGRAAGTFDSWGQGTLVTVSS
VL: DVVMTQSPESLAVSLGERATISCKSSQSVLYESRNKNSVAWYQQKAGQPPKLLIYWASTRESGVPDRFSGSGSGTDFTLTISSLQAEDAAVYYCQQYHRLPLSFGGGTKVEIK

The parent's light chain CDRs are KSSQSVLYESRNKNSVA, WASTRES, QQYHRLPLS; each variant's own CDRs replace them letter for letter.
Variants here have more than six changes.
Kd is apparent (estimated from mating counts) and averaged on the log scale over replicates with a signal. Smaller is tighter.
A pair that was not seen in any replicate is written "no signal"; this usually means weak binding, but a binder can also be missed.
In the paper, a design with two or fewer of six values counts as a poor binder.

For KFVQSWGYESRNKNAVA | HASQRCD | QQYHRLPLS [GP_Gibbs], the assay gave 1.6 nM (6 of 6 replicates). With KLDQWVEMESRWKNSVA | SASQRFE | QQYHRLPLS [GP_Gibbs] the result was 2.1 nM (6 of 6 replicates). With MVTQMAMTGMTNKRSVA | NAETRED | QQYHRLPLI [En_Gen] the result was 30 nM (5 of 6 replicates). For RLRNMWNGWVNNGASIA | DANMYAP | QQYQRLPLA [En_Gibbs], the assay gave 2.0 nM (6 of 6 replicates). Variant KYSMSELGEQRNANSVA | NASTREE | QQYHRLPLS [GP_Gibbs] showed 2.6 nM (6 of 6 replicates).

Variant KESQSELYESAAKNSVA | NAMQRMS | QQYHRLPLS [GP_Gibbs] gave 360 pM (6 of 6 replicates). For QIFFNDFWYGIESQNIA | QGSMREV | QQYARLPLV [En_Gibbs], the assay gave 4.8 nM (6 of 6 replicates). With KIMQSLNYEQFNVSNVA | GQETREK | QSYHRLPLS [En_HC] the result was 59 nM (2 of 6 replicates). With KLSQSVEGEEWNKNSVA | NASVREV | QQYHRLPLS [GP_Gibbs] the result was 6.7 nM (6 of 6 replicates). Variant MITMGLRGVGRNKNSVA | NAQTRES | QHYHRLPLS [En_HC] showed 57 nM (6 of 6 replicates).

For KLRQMTLTEGYFKNSVA | QAETRES | QSYHRLPLS [En_HC], the assay gave 5.2 nM (6 of 6 replicates). Variant QLSMITGHVSMSKNNVA | EMETRMN | QQYDRLPLS [En_Gen] gave 1.8 nM (6 of 6 replicates). Variant MISQLMNMGQFAINSVA | QASIRNS | QQYDRLPLT [En_Gen] showed no signal (0 of 6 replicates). Variant TISQSVNMTSHGKNSVA | QAEMREA | QQYDRLPLS [En_HC] gave 18 nM (6 of 6 replicates). Variant KLTQVTGYESYVRNSVA | QMSTRAE | QDYNRLPLS [En_HC] gave 3.7 nM (6 of 6 replicates).

For TLGNLMGGQNEMDNSIA | NHETRVQ | QQYWHLPLV [En_Gibbs], the assay gave 4.1 nM (6 of 6 replicates). For KISQMSTIESILHNSVA | QTSTRES | QQYDRLPLS [En_HC], the assay gave 3.2 nM (6 of 6 replicates). With KLVQSDLYESRNKNNVA | GVSQRES | QQYHRLPLS [GP_Gibbs] the result was 270 pM (6 of 6 replicates). For MISSVMGINNMYNSSVA | QAEERVE | QQYDRLPLA [En_Gen], the assay gave no signal (0 of 6 replicates). With TISQLYNMGSFAINSVA | QASERNE | QQYDRLPLI [En_Gen] the result was 9.6 nM (6 of 6 replicates).

Variant KLAYSEPYESRNKNSVA | DASTRSS | QQYHRLPLS [GP_Gibbs] showed 2.6 nM (6 of 6 replicates). Variant NFSQMVLTGQTLRNSVA | HASTRFN | QQYHRLPLI [En_HC] gave 28 nM (6 of 6 replicates). For ILYESVGTLSRNKHSVA | DNSTREK | QQYDRLPLS [En_HC], the assay gave 1.9 nM (6 of 6 replicates). With HMSMLTMMGMRHRNSVA | QMTTREN | QQYDRLPLA [En_Gen] the result was 21 nM (5 of 6 replicates). For KQQMSVMMGSRNKNSVA | SASKREE | QQYHRLPLS [GP_Gibbs], the assay gave 6.6 nM (6 of 6 replicates).

Variant MISMEEAPASQNASSIA | QGGLRAK | QQYNRLPLC [En_Gibbs] showed 140 nM (3 of 6 replicates). Variant MVNGIMDHLSKQTNNVA | ETTTRNE | QQYDRLPLS [En_Gen] gave 6.5 nM (6 of 6 replicates). For KLSQFYRMESRNKNAVA | DNSTRES | QCYDRLPLS [En_HC], the assay gave 260 nM (5 of 6 replicates). Variant KISQMVNYESTHLNAVA | QMSTREE | QQYFRLPLS [En_HC] showed 7.0 nM (6 of 6 replicates). With MMSYGWLYGSRNKRNVA | DRETRLS | QQYDRLPLS [En_HC] the result was 2.8 nM (6 of 6 replicates).

With KIGHGLTTESRARNSVA | QTETRVS | QHYHRLPLS [En_HC] the result was 1.4 µM (3 of 6 replicates). Variant KVSSFMRGLMMRKDSIA | DNETRNH | QQYDRLPLS [En_Gen] gave 42 nM (6 of 6 replicates). With HMSAITYGGMRQRNSVA | QMTTREN | QQYDHLPLS [En_Gen] the result was 39 nM (6 of 6 replicates). For KLSGLMASSKFAKNNVA | ENNTRED | QQYDRLPLS [En_Gen], the assay gave 130 nM (4 of 6 replicates). Variant HISMTMNYLSRNKNSIA | EESTRED | QQYHRLPLS [En_HC] gave no signal (0 of 6 replicates).

Variant TISQMQTLFSQSINNVA | EVSTRLN | QQYDRLPLA [En_Gen] gave 7.3 nM (6 of 6 replicates). Variant ALSFEMESPHNHSNNVA | SASKLCM | QQYFTLPLS [En_Gibbs] showed 42 nM (6 of 6 replicates). With KLEFSVDYESRNKNAVA | EASTREK | QQYHRLPLS [GP_Gibbs] the result was 760 pM (6 of 6 replicates). Variant MMTMFPNEPTGDSNAIA | DTNQLNT | QQYQRLPLM [En_Gibbs] gave 3.8 nM (6 of 6 replicates). For MVNGIMDHLSKNSNNVA | ETETRNA | QQYDRLPLS [En_Gen], the assay gave 9.5 nM (6 of 6 replicates).

Variant KLSDYVGGESRNKSSLA | DNSTRES | QQYHRLPLS [En_HC] showed 320 nM (5 of 6 replicates). Variant KWEYSVLGEQRNKNAVA | SASQREQ | QQYHRLPLS [GP_Gibbs] gave no signal (0 of 6 replicates). For KYSQSQLYESRNVNAVA | NASQRMS | QQYHRLPLS [GP_Gibbs], the assay gave 1.5 nM (6 of 6 replicates). For HISQSVGMTVRNKNSVA | ENSTRED | QQYDRLPLS [En_HC], the assay gave 330 nM (4 of 6 replicates). For MIAQGLRGVGRNKNSIA | NAQTRES | QHYHRLPLS [En_HC], the assay gave 1.7 µM (1 of 6 replicates).

Variant KLSQAVNVTGKNKNSVA | ELSFREQ | QQYDRLPLS [En_HC] gave 100 nM (6 of 6 replicates). Variant MISQMYNMGQFAINSVA | QASERNN | QQYDRLPLM [En_Gen] gave 26 nM (6 of 6 replicates). For KVPQSNLYEARNANSVA | NASTRLS | QQYHRLPLS [GP_Gibbs], the assay gave 3.2 nM (6 of 6 replicates). Variant NMNVGANFGKNQEQAIA | DVEDRES | QQYARLPLT [En_Gibbs] showed 1.8 nM (6 of 6 replicates).

Picked from the list: the 4 lowest averages where every replicate gave a value.

| CDR-L1 | CDR-L2 | CDR-L3 | group | Kd | replicates with signal |
|---|---|---|---|---|---|
| KLVQSDLYESRNKNNVA | GVSQRES | QQYHRLPLS | GP_Gibbs | 270 pM | 6/6 |
| KESQSELYESAAKNSVA | NAMQRMS | QQYHRLPLS | GP_Gibbs | 360 pM | 6/6 |
| KLEFSVDYESRNKNAVA | EASTREK | QQYHRLPLS | GP_Gibbs | 760 pM | 6/6 |
| KYSQSQLYESRNVNAVA | NASQRMS | QQYHRLPLS | GP_Gibbs | 1.5 nM | 6/6 |

Of ten entries with the parent sequence, four were seen in most replicates (averages 2.2 nM to 240 nM), three in one and three in none, so single entries are noisy.
Three control strains display no target. For all light chain designs, 4% of the pairings with them gave a signal, with a median of 430 nM and one signal in twenty below 38 nM, so weak values seen in few replicates may be background.
Values of this round are not directly comparable with the first-round values of the same sequences.